SMILES strings stand for the structures.

Amino acid sequences for entries named in this document (tags omitted).
UniProt P62937, whole entry: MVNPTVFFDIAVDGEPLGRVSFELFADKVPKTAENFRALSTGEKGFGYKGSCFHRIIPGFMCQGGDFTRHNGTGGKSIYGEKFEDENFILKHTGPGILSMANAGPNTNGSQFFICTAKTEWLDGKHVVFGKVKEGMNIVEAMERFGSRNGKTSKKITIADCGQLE

This assay addresses cyclophilin A (Homo sapiens, UniProt P62937). The assay can be described thus: Cyclophilin A TR-FRET competitive binding assay. The note with it: read-out: TR-FRET; IC50 ranges; competition with CsA-Cy5 for His-tagged CypA, two-hour incubation. A general note: Time-resolved FRET reads energy transfer from a long-lived donor to a nearby acceptor.

Turning to `CC(C)[C@@H]1NC(=O)C(C)(C#N)/C=C/c2ccc3ccc(nc3c2)[C@@H](C)OC(=O)[C@@H]2CCCN(N2)C(=O)[C@H](C)NC1=O` (single isomer, unassigned), the IC50 was less than 100 nM.

The values above are taken from patent publication US9512175B2, “Macrocyclic inhibitors of flaviviridae viruses” (Gilead Sciences, Inc., priority 2012, dated 2016).
